Each structure is given as a SMILES string. The entries are a selection whose mix differs from that of the whole data set. The source made the active and inactive calls.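 Rule for the calls: active = B-score of calcium response area above 5 SD of library B-scores, with initial fluorescence ratio within 5 SD of library; inactive = the rest.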

By UniProt entry, the sequences of proteins in these tests, tags left out.
UniProt Q9QUQ5, whole entry: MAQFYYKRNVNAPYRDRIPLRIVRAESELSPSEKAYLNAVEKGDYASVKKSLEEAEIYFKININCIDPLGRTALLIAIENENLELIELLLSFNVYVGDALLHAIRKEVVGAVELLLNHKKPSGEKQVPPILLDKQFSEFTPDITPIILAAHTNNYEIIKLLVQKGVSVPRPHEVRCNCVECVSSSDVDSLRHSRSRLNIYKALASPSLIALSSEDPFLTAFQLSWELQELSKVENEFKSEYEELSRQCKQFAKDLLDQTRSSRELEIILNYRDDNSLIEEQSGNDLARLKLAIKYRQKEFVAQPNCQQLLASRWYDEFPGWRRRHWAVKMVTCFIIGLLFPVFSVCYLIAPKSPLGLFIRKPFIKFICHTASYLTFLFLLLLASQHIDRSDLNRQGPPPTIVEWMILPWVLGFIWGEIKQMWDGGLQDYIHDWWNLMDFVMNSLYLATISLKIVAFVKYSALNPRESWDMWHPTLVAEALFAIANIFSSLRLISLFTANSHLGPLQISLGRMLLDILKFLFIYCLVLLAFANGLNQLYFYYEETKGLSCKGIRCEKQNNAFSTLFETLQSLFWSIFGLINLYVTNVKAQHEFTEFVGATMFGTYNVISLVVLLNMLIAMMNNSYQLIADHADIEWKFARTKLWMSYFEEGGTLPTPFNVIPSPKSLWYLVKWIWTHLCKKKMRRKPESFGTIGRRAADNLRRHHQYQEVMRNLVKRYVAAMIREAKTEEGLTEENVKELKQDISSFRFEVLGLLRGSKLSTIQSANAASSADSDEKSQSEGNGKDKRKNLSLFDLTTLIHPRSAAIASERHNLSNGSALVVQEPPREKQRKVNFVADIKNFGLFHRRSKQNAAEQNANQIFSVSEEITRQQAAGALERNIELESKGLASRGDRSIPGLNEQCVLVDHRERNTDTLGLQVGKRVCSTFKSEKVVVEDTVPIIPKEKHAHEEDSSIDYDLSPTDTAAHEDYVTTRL

The assay addresses Short transient receptor potential channel 4 (Mus musculus) (UniProt Q9QUQ5). The assay can be described thus: positive allosteric modulators of TRPC4, primary screen, cell-based, mouse TRPC4beta, HEK293 mu-opioid, Fluo-4 calcium (AID 2227). The note with it: DAMGO EC20, Fluo-4 Ca2+ flux, at 10 µM. (In general: A change in cytosolic calcium serves as a functional read-out for many receptors and channels.)
Turning to `Nc1ccc2c(ccc3cccnc32)n1.O=[N+]([O-])c1cc([N+](=O)[O-])c(O)c([N+](=O)[O-])c1`, the result was inactive. Next, `CP(=O)(OC12CC3CC(CC(C3)C1)C2)OC12CC3CC(CC(C3)C1)C2`: “inactive”. Next, `CCOC(=O)c1ccc(NP(C)(=O)Oc2ccc(Cl)cc2)cc1` (stereo unspecified): “inactive”; `O=C(Nc1cc([As](=O)(O)O)ccc1O)c1ccccc1`: “inactive”. Next, `O=[N+]([O-])c1ncn(CCn2ncnc2[N+](=O)[O-])n1`: “inactive”. With `CC(C)(C)C(=O)NC(Sc1ccncn1)C(Cl)(Cl)Cl` (stereo unspecified), the outcome was inactive.

On to `O=C(O)CNc1ccc([As](=O)(O)O)cc1`, for which the result was inactive.

For `O=[N+]([O-])c1cccc(NC2=NCC(CBr)S2)c1` (stereo unspecified), the result was inactive. Next, `CCN(CC)CC(O)COC(=O)C(O)(c1ccccc1)C1CCCCC1` (stereo unspecified): “inactive”; `COc1ccc(OP(C)(=O)Nc2ccc(Br)cc2)cc1` (stereo unspecified): “inactive”. Next, `COc1ccc(C2=NCC(CBr)S2)cc1` (stereo unspecified): “inactive”; `CP(=O)(Oc1ccccc1)N1CCOC1=O` (stereo unspecified): “inactive”; `Cc1ccc(NP(=O)(Oc2ccccc2)Oc2ccccc2)nc1`: “inactive”. Next, `CCc1ccc(OP(C)(=O)Nc2cccnc2)cc1` (stereo unspecified): “inactive”; `O=[N+]([O-])c1cc([N+](=O)[O-])c(CCNc2ccccc2)c([N+](=O)[O-])c1`: “inactive”. Turning to `CCc1nc2c(n1)c1c(non1O)c1c2no[n+]1[O-]`, the result was inactive.

Turning to `CC(=O)N1C2C3N(C(C)=O)C1C1N(C(C)=O)C(C(N1C(C)=O)N3C(C)=O)N2C(C)=O`, the outcome was inactive. Next, `O=[N+]([O-])c1cccc2n[nH]nc12`: “inactive”.

As to `COc1ccccc1OP(C)(=O)Nc1c(C)n(C)n(-c2ccccc2)c1=O` (stereo unspecified), the outcome was inactive. Regarding `O=C(OCCCN1CCCC1)C(O)(c1ccccc1)C1CCCCC1` (stereo unspecified), the result was inactive. In the case of `CCN(/C(=N/P(=O)(N1CCOCC1)N1CCOCC1)N1CCOCC1)c1ccc(OC)cc1`, the result was inactive. In the case of `CP(=O)(Nc1ccc(Cl)cc1)Oc1ccc(F)cc1` (stereo unspecified), the result was inactive. Next, `COc1ccccc1OP(C)(=O)Nc1ccccc1Br` (stereo unspecified): “inactive”. Next, `Nc1ccc([As](=O)(O)c2ccc(N)cc2)cc1`: “inactive”; `CC(C)(C)c1ccc(OP(C)(=O)O)cc1`: “inactive”. Next, `C[N+]1=C2C=CC=CC=C2SC12C([N+](=O)[O-])=CC([N+](=O)[O-])=C[C-]2[N+](=O)[O-]` (stereo unspecified): “inactive”; `CC1CCN(C(=O)Oc2c(Cl)cc(Cl)c3cccnc23)CC1`: “inactive”; `CC(C)=N/N=C(\N)N[N+](=O)[O-]`: “inactive”. Turning to `CN(C)C(=O)c1c([N+](=O)[O-])cc([N+](=O)[O-])cc1[N+](=O)[O-]`, the result was inactive. Next, `CN(C)C(=O)OCCc1n(C)cc[n+]1C`: “inactive”. Next, `COc1ccccc1OP(C)(=O)Nc1ccc(Br)cc1` (stereo unspecified): “inactive”.

Source of the values: PubChem BioAssay AID2227 (Johns Hopkins Ion Channel Center, 2009).
